The results in this text go back to ChEMBL document CHEMBL1157659, “Design, synthesis, and biological evaluation of 3-[4-(2-hydroxyethyl)piperazin-1-yl]-7-(6-methoxypyridin-3-yl)-1-(2-propoxyethyl)pyrido[3,4-b]pyrazin-2(1H)-one, a potent, orally active, brain penetrant inhibitor of phosphodiesterase 5 (PDE5)” (J Med Chem, 2010).

For data set [1], the species on record is Homo sapiens. In words: Fraction unbound in human plasma.
Data set [2] can be described thus: Fraction unbound in rat plasma. The class given is ADME, cell-free.
Data set [3] is filed under the species Homo sapiens. In words: Selectivity ratio of IC50 for human retina PDE6 to IC50 for human platelet PDE5.
The species entered for data set [4] is Homo sapiens. In words: Plasma protein binding in human. The settings on record: read-out: PPB (converted).
For data set [5], the species on record is Homo sapiens. Kind of data set: Selectivity ratio of IC50 for human recombinant PDE11 to IC50 for human platelet PDE5.

As for `CCCOCCn1c(=O)c(N2CCNCC2)nc2cnc(-c3ccc(OC)nc3)cc21`, the fraction unbound is 0.18 in the data set filed under Homo sapiens [1], 0.18 in data set [2] and 0.188 in the data set listed under Homo sapiens [4]. The results for the Ratio IC50 in the data set filed under Homo sapiens [3] and in the data set listed under Homo sapiens [5] were 51 and 2460, respectively.
